Bioassay records: PubChem BioAssay, National Center for Advancing Translational Sciences (NCATS)
This is a sample that favours compounds with a hit; in the whole collection about 3.7% have one here.
ClpP mod: qHTS Assay for Activators of ClpP; AID 651965, 2013; Potency, µM (doses to about 57.5 µM), inactives show at the highest dose activity change, negative = active; purified B. subtilis ClpP, FRET peptide cleavage, 20 min; 340,000 tested, 1.9% active; ATP-dependent Clp protease proteolytic subunit (Bacillus subtilis (strain 168)), P80244; active = well fitted falling curve with a large enough effect; inconclusive = small, poorly fitted or top-dose-only effect; inactive = no such curve, though single readings can be large or run the other way; also: potency is read from the fitted curve at half-maximal effect; the source files actives as falling curves though it sought activators and does not explain the sign; nearly all actives have a fitted effect of over 65% in size
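Buffer: 100 mM Tris/HCl pH8, 100 mM KCl, 0.05% low protease BSA, 2.5% glycerol, 0.01% Tween-20. ClpP 10 microg/mL final; 20 min RT; delta FRET normalized to ADEP and DMSO controls.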
A549 viability: counter-screen for Nrf2 inhibitors: cytotoxicity in A549 cells. Potency, µM (series often up to 46 µM), for inactives: at the top dose activity change, negative = cytotoxicity, most hits filed as inhibitors. 390,000 tested, 0.16% active. AID 504648. A549 ARE-Fluc cells, CellTiter-Fluor viability, 18-24 h; also: potency is read from the fitted curve at half-maximal effect; % is scaled to controls: 0 for no effect and ±100 for the full control effect
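A549 ARE-Fluc cells in 5% FBS OPTI-MEM, 5000 cells/well, rested 2 h then exposed to compounds in concentration-response for 18-24 h at 37 °C. Viability by CellTiter-Fluor fluorescence (Ex 405/Em 525) after 30 min; luciferase luminescence (BugLite, 15 min, RT) read afterwards.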
Nrf2 ARE act: activators of Nrf2 (ARE) signaling | AREc32 ARE-luciferase reporter (MCF7-derived line), luminescence, 24 h | Potency, µM (top dose mostly 46.1 µM), for inactives: at the top dose activation, most hits filed as activators | 410,000 tested, 0.31% active; also: potency is read from the fitted curve at half-maximal effect; % of control where 0% means no effect; nearly all actives have a fitted effect of over 65% in size
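Quantitative high-throughput format: AREc32 reporter cells, 1000 per well, received compound by pin transfer and were incubated 24 hr at 37 deg C, 5% CO2, before Steady-Glo luminescence detection.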
Nrf2 block: blocks Nrf2 signaling; A549 ARE-Fluc reporter, luciferase luminescence, 18-24 h; Potency, µM (highest dose often 46 µM), inactives show top-dose activity change, negative = inhibition, usual class: inhibitors; 360,000 tested, 2.1% active; AID 504444; also: potency is read from the fitted curve at half-maximal effect; % is scaled to controls: 0 for no effect and ±100 for the full control effect; nearly all actives have a fitted effect of over 60% in size
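Nrf2 function is reported as luminescence of an ARE-controlled luciferase in A549 cells. Compounds were tested at several concentrations, and a CellTiter-Fluor read on the same wells flagged cytotoxicity.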
miR-21 reporter: miR-21 reporter, rising signal | HeLa miR-21 FLuc reporter, luciferase, 48 h | Potency, µM (doses to about 38.3 µM), inactives show at the top dose reporter change, positive = more light | 340,000 tested, under 10 active | AID 2288; active = well fitted rising curve with a large enough effect; inconclusive = small, poorly fitted or top-dose-only effect; inactive = no such curve, though single readings can be large or run the other way;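 note: % of control where 0% means no effect; miR-21 action dims this reporter so a rising signal means less miR-21 action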
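Using DMEM plus 10% FBS, HeLa miR-21-FLuc cells are incubated with test compounds (final up to about 40uM) for 48 hours; firefly luciferase signal is then imaged following reagent-mediated lysis.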
p53 reactivation: mutant p53 re-activation in reporter cells; H1299 p53-A138V BP100-luciferase reporter, luminescence, 24 h; Potency, µM (series often up to 92.2 µM), for the others: at the top dose activity change, positive = activation, hits mostly activators; 320,000 tested, 0.063% active; AID 504706; also: potency is read from the fitted curve at half-maximal effect; % of control where 0% means no effect; nearly all actives have a fitted effect of over 45% in size
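p53-null H1299 cells stably carrying temperature-sensitive p53-A138V and a BP100-luciferase reporter were pinned with compounds (4-point, 1:5 series) and held 24 hrs at 37 deg C. Luminescence was read 10 min after detection reagent.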
ClpP inh valid: validation of B. subtilis ClpP protease hits (inhibitors); 470 tested, 40% active; Potency, µM (top dose mostly 57.5 µM), without a hit: top-dose activity change, negative = inhibition, usual class: inhibitors; AID 743245; shares compounds with ClpP mod; purified B. subtilis ClpP, FRET-FV substrate cleavage, 20 min; also: potency is read from the fitted curve at half-maximal effect; % is scaled to controls: 0 for no effect and ±100 for the full control effect; nearly all actives have a fitted effect of over 70% in size
Starred values were filed as active, the others as inactive; ? = inconclusive; / = no result; [ ] = remark or other dose. Unless noted, calls follow the shape of the dose curve; as a rule, active = well fitted curve in the direction sought with a large enough effect; inconclusive = small, poorly fitted or top-dose-only effect, or another doubt; inactive = no such curve, though single readings can be large; an effect the other way counts as inactive or inconclusive.

[1] Cc1ccc(NC(=O)c2cc([N+](=O)[O-])ccc2NCc2cccnc2)cc1Cl
[2] COc1cccc(NC(=O)c2cc([N+](=O)[O-])ccc2NCc2cccnc2)c1
[3] Cc1ccc(C(=O)CSc2nc3cc(C(=O)NC4CCCC4)ccc3c(=O)n2CC2CCCO2)c(C)c1 (stereo not given)
[4] CCCNC(=O)Nc1nc2ccccc2s1
[5] CCCNC(=O)c1ccc(-c2nc3ccccc3s2)s1
[6] CCc1ccc(-n2c(Cc3ccccc3)nnc2SCc2nc(-c3cccs3)no2)cc1
[7] CCOc1ccc(C2Nc3c(C)cccc3-c3cc(C)nn32)cc1 (stereo not given)
[8] Cc1cc2n(n1)C(c1cn(-c3ccccc3)nc1C)Nc1c(C)cccc1-2 (stereo not given)

compound no.	1	2	3	4	5	6	7	8
ClpP mod	-5%	42%	-1%	0%	2.8µM*	-3%	4%	8.9µM*
A549 viability	?	-7%	7%	-15%	0%	?	-5%	?
Nrf2 ARE act	3%	5%	0%	0%	-2%	1%	5%	0%
Nrf2 block	?	-14%	?	7%	?	?	-15%	?
miR-21 reporter	4%	14%	3%	-45%	6%	7%	17%	-5%
p53 reactivation	10%	-25%	/	12%	2%	/	/	-5%
ClpP inh valid	/	0%	/	/	24µM*	/	/	27µM*

[9] O=c1cc(-c2ccco2)oc2ccc(Cl)cc12
[10] COc1ccc2oc(-c3ccco3)cc(=O)c2c1
[11] O=C(Nc1ccc(NC(=O)c2cc3ccccc3o2)cc1)c1ccco1
[12] COc1ccc(NC(=O)c2ccco2)cc1NC(=O)c1cc2ccccc2o1
[13] O=S(=O)(Nc1cccc(-c2cn3cccnc3n2)c1)c1ccc(F)cc1
[14] CN(C)S(=O)(=O)Oc1ccc(Cl)cc1C(=O)Nc1cccc(C(F)(F)F)c1
[15] CN(C)S(=O)(=O)Oc1ccccc1C(=O)Nc1cccc(C(F)(F)F)c1
[16] CC(NC(=O)C1CCN(S(=O)(=O)c2ccc(F)cc2)CC1)c1ccccc1 (stereo not given)

compound no.	9	10	11	12	13	14	15	16
ClpP mod	2.8µM*	4%	/	80%	4µM*	0%	86%	?
A549 viability	-8%	0%	-9%	-12%	-28%	3%	0%	4%
Nrf2 ARE act	7%	?	2%	4%	6%	5%	3%	-1%
Nrf2 block	9%	?	-1%	-29%	16µM*	1%	-2%	3%
miR-21 reporter	-17%	-46%	-17%	13%	-3%	0%	-2%	-6%
p53 reactivation	?	15%	8%	2%	-6%	-1%	-2%	/
ClpP inh valid	?	/	/	19µM*	24µM*	/	1%	-1%

Structural class, those above with a thiophene ring, fused or not (two)
[5] CCCNC(=O)c1ccc(-c2nc3ccccc3s2)s1
[6] CCc1ccc(-n2c(Cc3ccccc3)nnc2SCc2nc(-c3cccs3)no2)cc1

compound no.	5	6
ClpP mod	2.8µM*	-3%
A549 viability	0%	?
Nrf2 ARE act	-2%	1%
Nrf2 block	?	?
miR-21 reporter	6%	7%
p53 reactivation	2%	/
ClpP inh valid	24µM*	/

Going on with the list.
[17] O=C(CSc1cn(CC(=O)N2CCOCC2)c2ccccc12)Nc1ccccc1F
[18] O=C(NCCSc1c(-c2ccccc2)[nH]c2ccccc12)c1cc2ccccc2oc1=O
[19] Cc1cccc(-c2cc(NC(=O)c3ccccc3C)n(-c3ccccc3)n2)c1
[20] COc1ccccc1C(=O)Nc1cc(-c2cccc(Br)c2)nn1-c1ccccc1
[21] Cc1ccc2oc(-c3ccc(NC(=O)CC(C)C)cc3)nc2c1
[22] CCOc1cc(C(=O)Nc2ccc(-c3nc4cc(C)ccc4o3)cc2)cc(OCC)c1OCC
[23] Cc1ccc2oc(-c3ccc(NC(=O)c4ccc5c(c4)OCO5)cc3)nc2c1
[24] Cc1ccc2oc(-c3ccc(NC(=O)c4cccnc4)cc3)nc2c1

compound no.	17	18	19	20	21	22	23	24
ClpP mod	-2%	32%	0%	4µM*	8.9µM*	3.2µM*	3.2µM*	51%
A549 viability	8%	-5%	5%	4%	-9%	-11%	-1%	15%
Nrf2 ARE act	0%	4%	6%	0%	-1%	1%	0%	1%
Nrf2 block	-1%	-3%	/	/	?	2%	-21%	/
miR-21 reporter	-2%	-9%	-39%	-6%	-51%	-14%	-43%	0%
p53 reactivation	/	-8%	/	/	0%	/	17%	?
ClpP inh valid	/	8%	/	19µM*	?	31µM*	12µM*	/

A few values from the results shown.
CCc1ccc(-n2c(Cc3ccccc3)nnc2SCc2nc(-c3cccs3)no2)cc1 – ClpP mod = -3%
Cc1ccc2oc(-c3ccc(NC(=O)c4ccc5c(c4)OCO5)cc3)nc2c1 – Nrf2 ARE act = 0%
O=C(Nc1ccc(NC(=O)c2cc3ccccc3o2)cc1)c1ccco1 – Nrf2 ARE act = 2%

The listing continues:
[25] CCC(C)c1ccc2oc(-c3ccc(NC(=O)c4ncn[nH]4)cc3)nc2c1 (stereo not given)
[26] O=C(NCc1ccccc1Cl)[C@H]1CCCN1C(=O)[C@H]1CCCN1C(=O)c1ccc(Cl)cc1
[27] Cc1cccc(NC(=O)CN2c3ccccc3S(=O)(=O)c3ccccc32)c1C
[28] CCCOc1ccc(C(=O)Nc2ccc3oc(-c4ccc(N(C)C)cc4)nc3c2)cc1
[29] Cc1ccc(C(=O)Nc2ccc3c(c2)nc2n3CCSC2)cc1
[30] CC(=O)Nc1ccc2c(c1)nc1n2CCSC1
[31] Cc1ccc(C(=O)CSc2nc(-c3ccccc3)nc3c2CCCC3)cc1
[32] COc1cc(-c2noc(C3CC(=O)N(c4cc(C)ccc4C)C3)n2)cc(OC)c1OC (stereo not given)

compound no.	25	26	27	28	29	30	31	32
ClpP mod	10µM*	-1%	?	1.3µM*	0%	40%	-1%	0%
A549 viability	0%	/	2%	3%	-3%	0%[1.84 µM]	2%	10%
Nrf2 ARE act	0%	-1%	0%	3%	-1%	-1%	0%	-1%
Nrf2 block	-21%	/	-19%	-5%	6%	2%	9%	?
miR-21 reporter	-16%	/	18%	-27%	-24%	-19%	-2%	5%
p53 reactivation	?	/	/	/	14%	4%	/	/
ClpP inh valid	22µM*	/	/	1%	/	-1%	/	/

[33] COc1cccc(N2CCN(c3ncnc4c3c(-c3ccccc3)cn4-c3cccc(C(F)(F)F)c3)CC2)c1
[34] CCc1ccc(NS(=O)(=O)c2ccc3[nH]cc(C(=O)N(C)Cc4ccco4)c(=O)c3c2)cc1
[35] CN(Cc1ccco1)C(=O)c1c[nH]c2ccc(S(=O)(=O)Nc3ccc4c(c3)OCCO4)cc2c1=O
[36] Cc1ccc(CC(=O)N2CCN(c3cccc(C(F)(F)F)c3)CC2)cc1
[37] CC(C)CCNC(=O)c1ccc2c(c1)nc1n2CCCCC1
[38] O=C(O)C1=CC(=C(c2ccc(O)c(C(=O)O)c2)c2ccc(O)c(C(=O)O)c2)C=CC1=O
[39] Cc1noc(C)c1COc1ccc(C(=O)NCCc2ccc(F)cc2)cc1
[40] CC(=O)Nc1cccc(-c2cn3ccccc3n2)c1

compound no.	33	34	35	36	37	38	39	40
ClpP mod	4µM*	-28%	3.5µM*	10µM*	1%	4%	-1%	/
A549 viability	12%	7%	7%	1%	1%	/	-2%	0%
Nrf2 ARE act	-1%	0%	1%	3%	-3%	/	3%	3%
Nrf2 block	/	12%	21%	-3%	/	/	?	?
miR-21 reporter	-4%	-1%	5%	-1%	-3%	/	/	-29%
p53 reactivation	/	0%	?	-5%	/	-5%	4%	2%
ClpP inh valid	22µM*	/	-3%	0%	/	?	/	/
